# T1: Bak (residues 23-186) (UniProt Q16611 23-186)
# T1 construct: Bak, residues 23-186; Cloned in pET-28a(+) between NdeI and XhoI; buffer-exchanged to HBS-EP
# T1 sequence (looked up): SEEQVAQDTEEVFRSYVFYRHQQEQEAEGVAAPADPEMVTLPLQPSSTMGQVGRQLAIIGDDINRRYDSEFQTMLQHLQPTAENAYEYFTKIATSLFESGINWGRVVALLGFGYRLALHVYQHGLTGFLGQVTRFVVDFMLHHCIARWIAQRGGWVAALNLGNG
# Target: T1, Bak (residues 23-186)
# Test: SPR; Bfk BH3 peptide amine-coupled to a CM5 chip (10 mM sodium acetate pH 5.0); Bcl-2, Bcl-XL (3.13-200 nM) and Bak (1.25-40.0 uM) injected in HBS-EP at 30 uL/min for 90 s; Biacore T200; KD by steady-state affinity analysis
# Details: both partners purified
binder,measurement,value
"SFDVAIIAGRLRMLGDQFNGE (BH3 peptide of human Bfk (BCL2L15), residues 47-67; also called Bfk BH3 peptide; Bfk BH3; source: synthetic peptide) [synthetic BH3 peptide derived from Bfk (residues 47-67)]",Kd,70 µM
